## Measured affinities in a library of Ab-95 light chain variants

From the AlphaSeq antibody data of Engelhart et al. 2022 (doi:10.1038/s41597-022-01779-4), copy in the FLAb collection.

Binding partner: SARS-CoV-2 spike HR2 peptide, sequence PDVDLGDISGINAS.

The variants keep the heavy chain, the linker and the frameworks of Ab-95 (scFv order VH, the linker GGGGSGGGGSGGGGS, VL).
VH: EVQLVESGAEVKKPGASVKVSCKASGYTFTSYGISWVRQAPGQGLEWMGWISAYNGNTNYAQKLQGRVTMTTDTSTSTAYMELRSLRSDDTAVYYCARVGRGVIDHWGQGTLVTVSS
VL: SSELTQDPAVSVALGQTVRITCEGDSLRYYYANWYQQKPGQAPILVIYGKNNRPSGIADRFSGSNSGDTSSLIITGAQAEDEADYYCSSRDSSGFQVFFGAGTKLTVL

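Phage display of a naive human antibody library on the peptide gave the parent. Variants in AAYL52 differ from the parent at up to three CDR positions; double and triple changes were sampled at random. Affinity was read by AlphaSeq, a pooled yeast mating assay with surface-displayed partners. The frequency of each diploid, read from paired DNA barcodes, reflects how well the two displayed proteins bind. Read counts were normalised to the haploid input and turned into Kd by a linear fit to BCL2-family pairs of known affinity, for each replicate. Each pool was mated in three replicate cultures.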

Substitutions are numbered in sequence along the VL above, starting at 1 (not Kabat). This list gathers variants with a substitution at F95 (VL, numbered from residue 1). Values are log10 of the apparent Kd in nM; lower means stronger binding. A mean of the replicates is given; it leaves out those without a signal. "no signal" marks a missing value. The strain was present, yet no cells mated with the target were sequenced in any replicate, which points to weak or no binding. Empty control strains, which show no peptide, gave a signal in 28% of pairings with library AAYL52; the median was 3.91 and 95% of these signals were weaker than 2.90. No background was subtracted. Also given: how often the same scFv was detected with the empty control strains.

* E23R+F95M = 2.31 (3 of 3 replicates; controls 1 of 9)
* N51T+R90G+F95P = 3.81 (2 of 3 replicates; controls 5 of 9)
* Y29C+S55H+F95H = 3.87 (2 of 3 replicates; controls 5 of 9)
* G49M+N52Q+F95W = 4.20 (2 of 3 replicates; controls 1 of 9)
* Y30I+S88D+F95H = 3.22 (3 of 3 replicates; controls 3 of 9)
* F95E+Q96S = 3.69 (3 of 3 replicates; controls 2 of 9)
* F95P = 2.64 (3 of 3 replicates; controls 3 of 9)
* L27S+F95W+Q96H = 4.06 (3 of 3 replicates; controls 3 of 9)
* N51C+F95I+V97E = no signal (0 of 3 replicates; controls 3 of 9)
* N51W+R90L+F95G = 2.52 (1 of 3 replicates; controls 2 of 9)
* Y31M+A32K+F95C = 4.40 (2 of 3 replicates; controls 1 of 9)
* G24A+S55M+F95G = 2.14 (3 of 3 replicates; controls 0 of 9)
* S26G+R28W+F95Y = 3.03 (3 of 3 replicates; controls 2 of 9)
* Y30H+S92W+F95N = 1.57 (3 of 3 replicates; controls 4 of 9)
* D25L+P54Q+F95V = 4.16 (2 of 3 replicates; controls 1 of 9)
* S89H+F95S = 3.31 (1 of 3 replicates; controls 0 of 9)
* E23H+R90V+F95P = 2.31 (3 of 3 replicates; controls 6 of 9)
* S26V+F95K = no signal (0 of 3 replicates; controls 0 of 9)
* P54R+S89M+F95H = 5.05 (1 of 3 replicates; controls 0 of 9)
* N52R+F95N+Q96I = 2.54 (2 of 3 replicates; controls 2 of 9)
* S55T+F95C = 4.44 (1 of 3 replicates; controls 1 of 9)
* D91H+F95D+Q96E = 2.63 (3 of 3 replicates; controls 3 of 9)
* S88M+S93F+F95A = 2.55 (3 of 3 replicates; controls 5 of 9)
* Y29R+R53A+F95I = 3.68 (2 of 3 replicates; controls 0 of 9)
* R28C+F95T = 2.37 (3 of 3 replicates; controls 2 of 9)
* L27M+S55L+F95P = 3.14 (3 of 3 replicates; controls 4 of 9)
* E23N+D25M+F95H = 2.80 (3 of 3 replicates; controls 5 of 9)
* E23V+F95R = 2.05 (3 of 3 replicates; controls 6 of 9)
* F95Y = 1.98 (3 of 3 replicates; controls 3 of 9)
* Y30E+N51R+F95A = 2.97 (3 of 3 replicates; controls 6 of 9)
* R53S+F95M+Q96L = 3.69 (3 of 3 replicates; controls 1 of 9)
* S88M+F95A+V97F = 4.31 (2 of 3 replicates; controls 0 of 9)
* N52R+P54A+F95K = no signal (0 of 3 replicates; controls 0 of 9)
* G24S+A32Q+F95M = 4.32 (3 of 3 replicates; controls 4 of 9)
* N51A+R90Y+F95W = 4.85 (1 of 3 replicates; controls 4 of 9)
* G49E+F95S+Q96D = no signal (0 of 3 replicates; controls 2 of 9)
* G49E+G94F+F95V = 3.25 (3 of 3 replicates; controls 1 of 9)
* N33S+S89E+F95Q = 4.06 (2 of 3 replicates; controls 2 of 9)
* Y29K+R53W+F95L = 3.26 (2 of 3 replicates; controls 2 of 9)
* L27Q+D91L+F95H = 5.01 (2 of 3 replicates; controls 3 of 9)
* S55E+S93G+F95C = 2.59 (2 of 3 replicates; controls 2 of 9)
* S88M+F95T+V97A = 2.25 (3 of 3 replicates; controls 2 of 9)
* R28T+S93F+F95C = 3.31 (3 of 3 replicates; controls 4 of 9)
* S26E+D91T+F95L = 5.20 (1 of 3 replicates; controls 3 of 9)
* G94Y+F95V+F98V = 2.73 (3 of 3 replicates; controls 5 of 9)
* G24Y+S88E+F95A = 2.98 (3 of 3 replicates; controls 3 of 9)
* N33P+G94Q+F95G = 3.39 (1 of 3 replicates; controls 6 of 9)
* G24H+G49T+F95L = 3.98 (1 of 3 replicates; controls 1 of 9)
* S89P+D91E+F95D = 2.08 (3 of 3 replicates; controls 0 of 9)
* R28H+G94F+F95R = 3.09 (3 of 3 replicates; controls 6 of 9)
* G24I+N33V+F95I = 3.25 (1 of 3 replicates; controls 2 of 9)

From the list, the first 4 with no signal in any replicate:

| changes | log10 Kd (nM), mean | seen in | signal with controls |
|---|---|---|---|
| N51C+F95I+V97E | no signal | 0 of 3 | 3 of 9 |
| S26V+F95K | no signal | 0 of 3 | 0 of 9 |
| N52R+P54A+F95K | no signal | 0 of 3 | 0 of 9 |
| G49E+F95S+Q96D | no signal | 0 of 3 | 2 of 9 |